Our source for the IC50 and Kd values is ChEMBL document CHEMBL3853350, “Discovery of a Selective Phosphoinositide-3-Kinase (PI3K)-γ Inhibitor (IPI-549) as an Immuno-Oncology Clinical Candidate” (ACS Med Chem Lett, 2016).

By UniProt entry, the sequences of proteins in these tests, tags left out. Where a name states a change or a piece, a line headed by the entry shows the natural chain unless it says otherwise.
UniProt P48736: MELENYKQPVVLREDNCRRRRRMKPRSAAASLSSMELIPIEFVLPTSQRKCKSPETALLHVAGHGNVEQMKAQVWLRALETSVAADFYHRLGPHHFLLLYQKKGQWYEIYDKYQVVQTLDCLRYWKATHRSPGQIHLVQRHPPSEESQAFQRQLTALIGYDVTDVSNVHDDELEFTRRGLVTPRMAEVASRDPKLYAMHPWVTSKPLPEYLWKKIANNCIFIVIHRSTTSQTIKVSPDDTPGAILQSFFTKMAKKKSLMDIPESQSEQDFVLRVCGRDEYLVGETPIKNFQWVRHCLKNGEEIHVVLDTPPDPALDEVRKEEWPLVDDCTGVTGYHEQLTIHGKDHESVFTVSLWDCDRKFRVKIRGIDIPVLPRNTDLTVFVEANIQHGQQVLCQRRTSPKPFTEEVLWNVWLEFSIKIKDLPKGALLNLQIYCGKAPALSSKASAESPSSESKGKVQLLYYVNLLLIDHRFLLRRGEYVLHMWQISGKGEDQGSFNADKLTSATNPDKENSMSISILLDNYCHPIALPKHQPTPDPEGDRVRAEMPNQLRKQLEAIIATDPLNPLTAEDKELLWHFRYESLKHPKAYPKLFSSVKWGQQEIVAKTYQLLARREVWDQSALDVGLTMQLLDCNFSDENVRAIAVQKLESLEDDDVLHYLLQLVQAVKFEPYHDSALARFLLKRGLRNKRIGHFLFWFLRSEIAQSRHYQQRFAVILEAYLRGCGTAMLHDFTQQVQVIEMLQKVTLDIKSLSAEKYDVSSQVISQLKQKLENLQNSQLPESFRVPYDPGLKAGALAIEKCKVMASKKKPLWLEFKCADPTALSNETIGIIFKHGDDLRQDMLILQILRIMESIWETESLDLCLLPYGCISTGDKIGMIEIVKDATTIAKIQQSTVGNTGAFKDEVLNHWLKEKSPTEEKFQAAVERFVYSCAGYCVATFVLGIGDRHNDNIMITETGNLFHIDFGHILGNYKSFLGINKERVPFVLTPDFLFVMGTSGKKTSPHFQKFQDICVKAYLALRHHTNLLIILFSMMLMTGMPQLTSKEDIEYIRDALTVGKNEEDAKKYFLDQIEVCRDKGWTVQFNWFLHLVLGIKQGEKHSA
UniProt P42336, whole entry: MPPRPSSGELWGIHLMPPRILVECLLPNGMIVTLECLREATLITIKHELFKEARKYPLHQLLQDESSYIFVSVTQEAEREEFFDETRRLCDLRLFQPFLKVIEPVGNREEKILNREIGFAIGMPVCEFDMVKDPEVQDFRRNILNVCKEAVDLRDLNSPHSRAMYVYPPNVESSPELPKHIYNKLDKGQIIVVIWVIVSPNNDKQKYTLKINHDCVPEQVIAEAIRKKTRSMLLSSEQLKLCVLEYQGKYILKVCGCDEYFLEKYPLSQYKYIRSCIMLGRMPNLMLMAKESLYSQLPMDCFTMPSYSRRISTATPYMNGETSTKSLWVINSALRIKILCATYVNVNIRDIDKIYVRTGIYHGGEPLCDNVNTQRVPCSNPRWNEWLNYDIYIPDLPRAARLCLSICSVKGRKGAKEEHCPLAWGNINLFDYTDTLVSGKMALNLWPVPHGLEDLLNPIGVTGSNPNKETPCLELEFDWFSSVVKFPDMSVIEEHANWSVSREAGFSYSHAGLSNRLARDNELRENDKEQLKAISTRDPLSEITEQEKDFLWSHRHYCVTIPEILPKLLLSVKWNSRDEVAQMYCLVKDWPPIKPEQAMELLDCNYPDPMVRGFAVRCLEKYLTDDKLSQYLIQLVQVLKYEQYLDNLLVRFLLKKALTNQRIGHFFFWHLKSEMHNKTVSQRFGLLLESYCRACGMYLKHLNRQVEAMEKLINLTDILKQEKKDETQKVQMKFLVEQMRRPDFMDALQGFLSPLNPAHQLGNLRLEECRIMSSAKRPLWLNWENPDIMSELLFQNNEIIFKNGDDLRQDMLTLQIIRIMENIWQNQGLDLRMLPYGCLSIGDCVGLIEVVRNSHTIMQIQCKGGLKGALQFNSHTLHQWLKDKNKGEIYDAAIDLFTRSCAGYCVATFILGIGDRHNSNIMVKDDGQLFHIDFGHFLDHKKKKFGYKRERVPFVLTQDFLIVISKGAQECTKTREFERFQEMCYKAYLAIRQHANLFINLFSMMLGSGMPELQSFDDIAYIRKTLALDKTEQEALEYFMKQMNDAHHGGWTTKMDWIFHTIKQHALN

pIC50, pKd: −log10 of the molar value.

By pIC50 is commonly meant −log10 of the IC50, conventionally taken in molar units. A word on the pKd: it is the Kd on a negative log10 scale, so that one unit is a factor of ten.

For assay [1], the target named is Phosphatidylinositol 4,5-bisphosphate 3-kinase catalytic subunit gamma isoform (Homo sapiens, UniProt P48736). Put plainly: biochemical.
Assay [2] deals with Phosphatidylinositol 4,5-bisphosphate 3-kinase catalytic subunit alpha isoform (Homo sapiens, UniProt P42336). The assay is described as follows: Inhibition of PI3Kalpha in human SKOV-3 cells assessed as reduction in AKT phosphorylation at S473 after 30 mins by ELISA. The class given is cell-based, SK-OV-3.
For assay [3], the target named is T1, PI3-kinase p110-delta/p85-alpha (Homo sapiens, UniProt O00329). The assay is described as follows: Inhibition of human recombinant full length N-terminal GST-tagged PI3K p110delta/p85alpha coexpressed in baculovirus infected Sf9 insect cells using diC8PIP2 as substrate incubated for 15 mins followed by substrate addition measured after 2 hr by ADP-Glo luminescence assay. For orientation: ADP-Glo turns the ADP formed in a reaction into a luminescent signal.

For assay [4], the target named is T2, PI3-kinase p110-alpha/p85-alpha (Homo sapiens, UniProt P42336). The assay is described as follows: Inhibition of human recombinant full length N-terminal His6-tagged PI3K p110alpha/p85alpha coexpressed in baculovirus infected Sf9 insect cells using diC8PIP2 as substrate incubated for 15 mins followed by substrate addition measured after 2 hr by ADP-Glo luminescence assay.

Assay [5] addresses T3, Phosphatidylinositol 4,5-bisphosphate 3-kinase catalytic subunit delta isoform (Homo sapiens, UniProt O00329).
T3 sequence (O00329 whole entry): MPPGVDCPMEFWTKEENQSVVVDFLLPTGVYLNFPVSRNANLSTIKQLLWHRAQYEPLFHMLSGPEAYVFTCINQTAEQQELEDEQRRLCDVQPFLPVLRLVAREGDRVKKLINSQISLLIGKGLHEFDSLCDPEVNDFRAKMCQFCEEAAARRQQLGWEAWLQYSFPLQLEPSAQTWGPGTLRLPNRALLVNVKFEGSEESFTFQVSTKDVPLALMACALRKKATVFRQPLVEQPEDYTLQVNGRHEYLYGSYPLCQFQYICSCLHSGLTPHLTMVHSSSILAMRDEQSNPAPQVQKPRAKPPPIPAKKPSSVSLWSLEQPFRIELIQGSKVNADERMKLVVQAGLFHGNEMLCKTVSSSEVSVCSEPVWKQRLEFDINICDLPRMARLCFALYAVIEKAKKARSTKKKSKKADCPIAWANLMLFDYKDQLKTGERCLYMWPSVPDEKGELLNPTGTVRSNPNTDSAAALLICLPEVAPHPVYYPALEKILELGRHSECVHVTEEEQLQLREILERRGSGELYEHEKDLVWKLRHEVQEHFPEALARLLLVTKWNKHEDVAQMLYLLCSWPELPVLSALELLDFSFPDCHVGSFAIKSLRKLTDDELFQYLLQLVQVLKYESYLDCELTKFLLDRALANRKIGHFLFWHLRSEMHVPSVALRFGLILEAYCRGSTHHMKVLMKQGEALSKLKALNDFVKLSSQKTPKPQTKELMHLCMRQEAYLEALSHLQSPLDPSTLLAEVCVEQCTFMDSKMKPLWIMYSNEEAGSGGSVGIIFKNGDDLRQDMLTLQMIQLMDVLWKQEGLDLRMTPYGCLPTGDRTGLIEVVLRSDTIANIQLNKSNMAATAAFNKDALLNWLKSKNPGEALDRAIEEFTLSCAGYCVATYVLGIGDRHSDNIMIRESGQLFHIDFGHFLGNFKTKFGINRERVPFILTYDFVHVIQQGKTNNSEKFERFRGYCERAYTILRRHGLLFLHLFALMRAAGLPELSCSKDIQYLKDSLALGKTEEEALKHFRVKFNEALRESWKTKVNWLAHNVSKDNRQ
The assay is described as follows: Inhibition of PI3Kdelta in IgM-stimulated human Raji cells assessed as reduction in AKT phosphorylation at S473 incubated for 30 mins followed by stimulation with IgM for 30 mins by ELISA. The class given is cell-based. On the technique in general: ELISA stands for enzyme-linked immunosorbent assay.

In assay [6] the target is T2, PI3-kinase p110-alpha/p85-alpha. The assay is described as follows: Binding affinity to human recombinant full length N-terminal His6-tagged PI3K p110alpha/p85alpha coexpressed in baculovirus infected Sf9 insect cells by equilibrium fluorescence titration analysis.
Assay [7] deals with T1, PI3-kinase p110-delta/p85-alpha. Put plainly: Binding affinity to human recombinant full length N-terminal GST-tagged PI3K p110delta/p85alpha coexpressed in baculovirus infected Sf9 insect cells by equilibrium fluorescence titration analysis.

Take `C[C@H](NC(=O)c1c(N)nn2ccccc12)c1cc2cccc(Cl)c2c(=O)n1-c1ccccc1`: the negative logarithm of the IC50 (pIC50) in assay [1] is 6.52.
As to `C[C@H](NC(=O)c1c(N)nn2cccnc12)c1cc2cccc(C#Cc3cnn(C)c3)c2c(=O)n1-c1ccccc1` [EGANELISIB], the pIC50 in assay [2] is 6.60; in assay [3], < 5.08; in assay [4] it was 5.49; in assay [5], 6.74. Also, the pKd was 7.77 in assay [6] and 7.64 in assay [7].
